From PMC2718698, “The TCL1A Oncoprotein Interacts Directly with the NF-κB Inhibitor IκB” (PLoS ONE, 2009) come the findings set out here.

First the molecules themselves.
T1: IκBα ankyrin domain, human IκB(67–302) (human, UniProt P25963 67-302)
T1 construct: IκBα ankyrin domain, human, residues 67-302; the 20 C-terminal residues are not in the crystal structure 1NFI
T1 sequence (looked up): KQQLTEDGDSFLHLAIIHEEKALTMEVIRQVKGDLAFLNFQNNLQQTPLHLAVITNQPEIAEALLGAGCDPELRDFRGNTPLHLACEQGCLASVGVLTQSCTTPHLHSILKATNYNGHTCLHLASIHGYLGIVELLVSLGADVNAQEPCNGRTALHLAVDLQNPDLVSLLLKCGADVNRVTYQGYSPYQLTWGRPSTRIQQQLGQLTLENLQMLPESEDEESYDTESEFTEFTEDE

T2: AKTβ PH domain, human AKTβ PH(1–118) (human, UniProt P31751 1-118)
T2 sequence (looked up): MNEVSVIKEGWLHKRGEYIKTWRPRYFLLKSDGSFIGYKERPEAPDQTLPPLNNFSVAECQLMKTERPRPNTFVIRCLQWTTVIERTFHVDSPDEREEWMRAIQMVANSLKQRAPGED

B1: IκB_ank^7CS bound to the NF-κB family member RELA (complex)
chain 1: T1 sequence (looked up) with C69S, C86S, C90S, C101S, C120S, C149S, C173S
chain 2: MDELFPLIFPAEPAQASGPYVEIIEQPKQRGMRFRYKCEGRSAGSIPGERSTDTTKTHPTIKINGYTGPGTVRISLVTKDPPHRPHPHELVGKDCRDGFYEAELCPDRCIHSFQNLGIQCVKKRDLEQAISQRIQTNNNPFQVPIEEQRGDYDLNAVRLCFQVTVRDPSGRPLRLPPVLSHPIFDNRAPNTAELKICRVNRNSGSCLGGDEIFLLCDKVQKEDIEVYFTGPGWEARGSFSQADVHRQVAIVFRTPPYADPSLQAPVRVSMQLRRPSDRELSEPMEFQYLPDTDDRHRIEEKRKRTYETFKSIMKKSPFSGPTDPRPPPRRIAVPSRSSASVPKPAPQPYPFTSSLSTINYDEFPTMVFPSGQISQASALAPAPPQVLPQAPAPAPAPAMVSALAQAPAPVPVLAPGPPQAVAPPAPKPTQAGEGTLSEALLQLQFDDEDLGALLGNSTDPAVFTDLASVDNSEFQQLLNQGIPVAPHTTEPMLMEYPEAITRLVTGAQRPPDPAPAPLGAPGLPNGLLSGDEDFSSIADMDFSALLSQISS
modifications: IkB limits 67-302 and the all-Cys-to-Ser (7CS) change are printed; the seven Cys positions come from the entry. RELA/p65 (pGEX2T) has no printed limits or species: taken as whole human protein …
B2: T cell leukaemia/lymphoma 1A (TCL1A), purified recombinant human protein (natural protein)
chain: MAECPTLGEAVTDHPDRLWAWEKFVYLDEKQHAWLPLTIEIKDRLQLRVLLRREDVVLGRPMTPTQIGPSLLPIMWQLYPDGRYRSSDSSFWRLVYHIKIDGVEDMLLELLPDD
notes: TCL1A, human; 7 N-terminal residues are not seen in the crystal structure 1JSG

Holding throughout (conditions): both partners purified
For experiment [1], the target named is B2. The experiment in a line: ITC; data not shown; TCL1A injected into the cell filled with IκB_ank^7CS bound to RELA; 20°C; 20 mM sodium phosphate pH 7.1, 300 mM NaCl, 2 mM EGTA, 1 mM β-mercapto ethanol. (In general: ITC needs no label: the signal is the heat of the interaction.)
Experiment [2] deals with T1, IκBα ankyrin domain, human IκB(67–302). Description: native gel or EMSA; native PAGE gel shift with purified recombinant proteins; Coomassie stain or Western blot with anti-IκBα. Background: A gel shift assay detects complexes by their altered migration in electrophoresis.
Experiment [3] deals with T2, AKTβ PH domain, human AKTβ PH(1–118). The experiment in a line: ITC; AKT_PH (490 µM) injected into TCL1A (40 µM) or into equimolar TCL1A and IκB_ank^7CS in the cell; 20°C; 20 mM sodium phosphate pH 7.1, 300 mM NaCl, 2 mM EGTA, 1 mM β-mercapto ethanol.

Where a chain is given by its changes, count along the chain named.

Regarding B1, the Kd in experiment [1] is above 50 µM. Consider B2, for which, in experiment [2], the binding result is recorded as “binds”. In experiment [3], the affinity, expressed as Kd, was 7.5 ± 1 µM.

In general, Kd refers to the free concentration of one partner at which half of the binding sites on the other are occupied at equilibrium, for simple one-to-one binding.
